Data: ChEMBL document CHEMBL1152936, “Human sialidase inhibitors: design, synthesis, and biological evaluation of 4-acetamido-5-acylamido-2-fluoro benzoic acids” (Bioorg Med Chem, 2009)

What was measured:
[1] = molecular target: T1, Sialidase-4 (Homo sapiens) (UniProt Q8WWR8); experiment: Inhibition of human NEU4 transiently transfected in HEK293 cells at 1 mM by fluorimetric analysis; type: cell-based
T1 sequence (whole entry): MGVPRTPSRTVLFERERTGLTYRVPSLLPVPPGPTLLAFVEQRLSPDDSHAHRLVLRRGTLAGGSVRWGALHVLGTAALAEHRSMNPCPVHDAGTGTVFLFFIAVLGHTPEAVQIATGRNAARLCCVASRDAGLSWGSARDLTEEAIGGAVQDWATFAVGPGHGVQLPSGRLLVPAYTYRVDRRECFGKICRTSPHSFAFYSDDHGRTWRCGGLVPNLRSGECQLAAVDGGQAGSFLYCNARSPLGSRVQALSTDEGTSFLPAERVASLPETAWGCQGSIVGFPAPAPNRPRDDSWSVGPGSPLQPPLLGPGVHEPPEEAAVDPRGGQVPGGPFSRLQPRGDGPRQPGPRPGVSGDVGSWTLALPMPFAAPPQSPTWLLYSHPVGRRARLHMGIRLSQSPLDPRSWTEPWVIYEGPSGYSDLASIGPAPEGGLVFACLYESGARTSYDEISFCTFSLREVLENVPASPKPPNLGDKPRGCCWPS
Method in brief: (§1)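 Enzyme source was the crude supernatant of homogenates from HEK-293 cells transiently transfected with a full-length human sialidase cDNA plasmid. The reaction contained 10–20 nmol substrate (4MU-Neu5Ac) as bound sialic acid, 0.2 mg BSA, sodium acetate pH 4.6 and 0.2 mg Triton X-100. It was incubated at 37 °C for 10–30 min, and released sialic acid was quantified. Inhibitors were tested at 1 mM and reported as percent inhibition.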

[2] = molecular target: T2, Sialidase-3 (Homo sapiens) (UniProt Q9UQ49); experiment: Inhibition of human NEU3 transiently transfected in HEK293 cells at 1 mM by fluorimetric analysis; type: cell-based; method in brief: as §1
T2 sequence (whole entry): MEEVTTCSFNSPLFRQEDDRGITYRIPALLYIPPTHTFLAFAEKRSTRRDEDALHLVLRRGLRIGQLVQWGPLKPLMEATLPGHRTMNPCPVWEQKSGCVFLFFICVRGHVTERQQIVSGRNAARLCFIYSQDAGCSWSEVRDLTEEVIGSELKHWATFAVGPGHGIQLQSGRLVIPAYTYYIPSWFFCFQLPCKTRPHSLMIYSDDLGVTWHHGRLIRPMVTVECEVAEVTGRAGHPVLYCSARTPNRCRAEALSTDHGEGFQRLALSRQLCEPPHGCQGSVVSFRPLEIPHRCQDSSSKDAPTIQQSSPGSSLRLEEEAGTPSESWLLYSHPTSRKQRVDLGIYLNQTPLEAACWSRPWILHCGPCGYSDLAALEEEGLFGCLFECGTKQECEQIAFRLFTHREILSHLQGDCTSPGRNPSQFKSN

`CC(=O)Nc1cc(F)c(C(=O)O)cc1NC(=O)c1ccc(-c2ccccc2)cc1` gave an inhibition [1] of 10% and an inhibition [2] of 8%.
